Data on 2 substances can be found in article PMC5654968 (NPJ Systems Biology and Applications, 2017).

The nature of this data set: Plasma PK of major maoto compounds by LC-MS/MS after oral administration of maoto. It counts as in vivo. The conditions noted are these: rat plasma. The protocol:
1 (7:00-19:00). Rats were maintained and used for the experiments in accordance
2 with the Guidelines for the Care and Use of Laboratory Animals of Tsumura &
3 CO. All experimental procedures were carried out upon approval from the
4 Laboratory Animal Committee of Tsumura & CO.
8 administered to 16-h fasted rats (n=3). […]
14 and 4 g/10mL/kg) were determined by LC-MS/MS. Based on a literature search,
16 amygdalin, prunasin, scopoletin, l-ephedrine, d-pseudoephedrine,
1 Plasma PK data were analyzed by noncompartmental modeling using
2 Phoenix WinNonlin (version 6.3, Certara L.P., St. Louis, MO, USA) to determine
3 various PK constants including Cmax, tmax, t1/2, and AUC0–last. The t1/2 was divided
4 by loge2/ke, where ke is the rate constant of terminal elimination (at least three
5 data points on the descending linear limb). […]

Turning to Isoliquiritin apioside, where the note is “oral maoto 1 g/kg”, the AUClast is 0.113 ng·h/mL; the Cmax (as a rule, the peak of the concentration-time curve) worked out at 0.355 ng/mL; the Tmax (usually the time at which the peak concentration occurs) turned out to be 0.250 h. Under “oral maoto 2 g/kg”, the AUClast worked out at 3.16 ng·h/mL, the peak concentration (Cmax) came to 1.49 ng/mL and the Tmax is 1.00 h. In addition, under “oral maoto 4 g/kg”, the AUClast turned out to be 8.10 ng·h/mL, the Cmax came to 9.08 ng/mL, the Tmax is recorded as 0.250 h and the t1/2 was determined as 0.891 h.
With Liquiritin apioside, for the setting “oral maoto 1 g/kg”, the AUClast was 12.9 ng·h/mL, the highest concentration (Cmax) was determined as 3.07 ng/mL, the Tmax turned out to be 2.00 h and the t1/2 worked out at 3.96 h. Also, where the note is “oral maoto 2 g/kg”, the AUClast was 31.7 ng·h/mL, the Cmax was 7.24 ng/mL, the Tmax came to 1.00 h and the t1/2 amounted to 2.62 h. For the setting “oral maoto 4 g/kg”, this substance had an AUClast of 130 ng·h/mL, a Cmax of 169 ng/mL and a t1/2 of 3.85 h.
